Data reported in PMC8406418, “Plant-Derived Cyclotides Modulate κ-Opioid Receptor Signaling” (Journal of Natural Products, 2021).

Sequences of proteins named here, by UniProt entry; tags and fusion partners are left off.
UniProt P33534, whole entry: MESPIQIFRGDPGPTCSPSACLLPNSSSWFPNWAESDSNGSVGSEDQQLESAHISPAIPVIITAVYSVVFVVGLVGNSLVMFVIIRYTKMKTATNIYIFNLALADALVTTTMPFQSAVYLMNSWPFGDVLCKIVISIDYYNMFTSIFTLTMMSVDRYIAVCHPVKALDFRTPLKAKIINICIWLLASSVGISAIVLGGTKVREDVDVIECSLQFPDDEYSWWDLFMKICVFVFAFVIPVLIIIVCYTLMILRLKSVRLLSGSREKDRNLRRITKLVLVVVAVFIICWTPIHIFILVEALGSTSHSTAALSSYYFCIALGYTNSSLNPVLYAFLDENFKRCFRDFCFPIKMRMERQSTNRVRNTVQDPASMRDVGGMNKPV

Biological target: mouse KOR (Mus musculus, UniProt P33534)
Assay: Saturation binding of [3H]-DPN, HEK293 cell membrane preparations
Details: 1 h at 37 °C

## [^3H]-Diprenorphine
  Hill slope of the saturation binding curve: 1.00 ± 0.07
  maximum number of receptor binding sites (Bmax): 7166 ± 147 femtomoles of ligand bound per milligram of membrane
read-out: equilibrium dissociation constant (Kd)
  Kd: 0.87 nM

Only a part of the results on these compounds is given; other tests are left out.
